Molecules are shown by their SMILES. Only a part is listed here, and it is no random draw. Some salts or complexes appear as unconnected parts, following the source record. Calls of active or inactive are those of the source. No stated cut-off is given here; in the data, active means viability loss activity score above about 50%; inconclusive means no clear call, values can overlap the other calls; inactive means below about 35%.

A short description of the test: cytotoxicity in HRASV12-transformed BJ fibroblasts – cell-based, luminescence, CellTiterGlo ATP, primary screen (AID 2275).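 Further: higher score means fewer live cells and less ATP luminescence.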 Particulars: BJeLR fibroblasts viability, 48 h, stronger effect = higher value, HRASV12, hTERT and SV40 LT/ST transformed, concentration not given here.
`COc1cc2c(cc1NP(C)(=O)Oc1ccccc1)oc1ccccc12` (stereo not given): the viability loss activity score was inactive: -0.0888%.

As to `CN(C(=O)Cc1ccc(Cl)c(Cl)c1)[C@H]1CCCC[C@@H]1N1CCCC1`, the viability loss activity score is inactive: 3.16%.

As to `CP(=O)(Nc1ccccn1)Oc1ccccc1` (stereo not given), the viability loss activity score was inactive: 2.67%.

Turning to `CP(=O)(Nc1ccc(Cl)cc1)Oc1ccc(F)cc1` (stereo not given), the viability loss activity score is inactive: 3.6%.

Regarding `C/C1=C2N=C(/C=C3N=C(/C(C)=C4\[N-][C@@](C)([C@@H]5N=C1[C@](C)(CCC(=O)NCC(C)OP(=O)(O)O[C@@H]1[C@H](O)[C@H](n6cnc7cc(C)c(C)cc76)O[C@H]1CO)[C@H]5CC(N)=O)[C@@](C)(CC(N)=O)[C@@H]4CCC(N)=O)[C@@](C)(CC(N)=O)[C@@H]\3CCC(N)=O)C(C)(C)[C@@H]/2CCC(N)=O.[C-]#N.[Co+3]` (stereo not given in full), the viability loss activity score was inactive: 2.15%.

With `O=C(OC1CN2CCC1CC2)c1ccc(Cl)cc1` (stereo not given), the viability loss activity score was inactive: -9.56%.

Consider `Cc1cccc(OCC(=O)OC2CN3CCC2CC3)c1` (stereo not given), for which the viability loss activity score is inactive: -2.22%.

For the compound `O=P1(Nc2ccccn2)COc2ccccc2OC1`, the viability loss activity score was inactive: -0.681%.

`Cc1ccc(C(=O)OC2CN3CCC2CC3)cc1` (stereo not given): the viability loss activity score was inactive: 1.21%.

For `Cc1cc(C)cc(OP(C)(=O)Nc2ccc(OC(C)C)cc2)c1` (stereo not given), the viability loss activity score was inactive: -7.35%.

Values taken from PubChem BioAssay AID2275 (Broad Institute, 2010).
